EC50, IC50 and Ki data for two compounds are collected here from article PMC5638916, “CETSA quantitatively verifies in vivo target engagement of novel RIPK1 inhibitors in various biospecimens” (Scientific Reports, 2017).

Amino acid sequences for entries named in this document (tags omitted). Residues count along the entry.
UniProt Q13546, 1-375 limits assumed: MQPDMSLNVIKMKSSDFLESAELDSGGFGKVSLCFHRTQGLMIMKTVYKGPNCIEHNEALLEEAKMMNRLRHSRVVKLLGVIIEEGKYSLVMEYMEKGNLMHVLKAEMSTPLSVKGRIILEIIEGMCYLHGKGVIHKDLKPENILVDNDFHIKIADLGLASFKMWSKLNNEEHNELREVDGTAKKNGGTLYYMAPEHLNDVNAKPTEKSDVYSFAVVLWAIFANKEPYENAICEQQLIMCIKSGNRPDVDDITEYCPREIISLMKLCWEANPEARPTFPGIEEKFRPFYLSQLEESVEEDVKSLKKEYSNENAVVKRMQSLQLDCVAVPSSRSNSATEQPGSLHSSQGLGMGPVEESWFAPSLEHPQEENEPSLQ
UniProt Q13546, whole entry: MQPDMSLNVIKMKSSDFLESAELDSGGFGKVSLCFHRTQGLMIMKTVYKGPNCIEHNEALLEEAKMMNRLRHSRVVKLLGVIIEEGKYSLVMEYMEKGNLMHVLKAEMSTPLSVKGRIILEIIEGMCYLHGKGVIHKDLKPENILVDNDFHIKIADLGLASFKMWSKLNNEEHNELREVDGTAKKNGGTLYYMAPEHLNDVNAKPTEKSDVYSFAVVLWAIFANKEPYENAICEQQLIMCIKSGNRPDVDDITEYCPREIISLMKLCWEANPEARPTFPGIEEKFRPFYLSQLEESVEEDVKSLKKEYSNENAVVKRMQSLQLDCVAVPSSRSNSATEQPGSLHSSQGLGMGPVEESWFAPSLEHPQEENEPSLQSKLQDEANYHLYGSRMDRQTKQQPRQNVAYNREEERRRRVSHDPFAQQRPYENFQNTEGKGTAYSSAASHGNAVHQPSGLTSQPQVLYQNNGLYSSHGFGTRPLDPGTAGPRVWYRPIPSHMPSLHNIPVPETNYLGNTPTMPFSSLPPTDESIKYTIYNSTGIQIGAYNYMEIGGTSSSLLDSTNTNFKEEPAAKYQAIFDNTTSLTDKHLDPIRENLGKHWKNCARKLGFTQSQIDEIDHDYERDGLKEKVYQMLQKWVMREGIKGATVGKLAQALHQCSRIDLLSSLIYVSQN

For experiment [1], the target named is T1, human RIPK1 (Homo sapiens, UniProt Q13546). The experiment can be described thus: CETSA (Tagg curves and ITDRF) for human RIPK1 with HT-29 cells. It counts as cell-based. The following applies: read-out: human_ITDRF-CETSA (EC50), compound 30 min, 47 °C for 8 min denature, independent runs reported.
A further experiment concerns HT-29 cells. The experiment can be described thus: HT-29 necroptosis assay. The following applies: read-out: HT29-Necroptosis (IC50), TNF-α + AT-406 + zVAD-FMK, 16–20 h. Type of experiment: cell-based, human.
Experiment [2] addresses T1, human RIPK1. Put plainly: Competition recombinant enzyme binding assay (TR-FRET), human RIPK1. Particulars: read-out: hRIPK1 enzyme (Ki), recombinant GST-His-human RIPK1 (1-375), 95% CI in brackets. (In TR-FRET formats the signal depends on donor and acceptor labels being close together.)

Usually EC50 stands for the concentration giving half of the maximal effect. As usually defined, the IC50 is the concentration that gives 50% inhibition. A word on the Ki: it is the dissociation constant of the complex between target and ligand, obtained from inhibition or displacement. Consider `CN1C(=O)[C@@H](N2CCc3cn(Cc4ccccc4)nc3C2=O)COc2cc(C#N)ccc21`, for which the EC50 on human RIPK1 [1] stood at 4 nM. For the same compound, in the experiment on HT-29 cells, the IC50 worked out at 24 nM. Further, the Ki on human RIPK1 [2] came to 5.8 nM.
`CN1C(=O)[C@@H](N2CCc3cn(Cc4ccc(C#N)cc4)nc3C2=O)COc2ccccc21`: the IC50 in the experiment on HT-29 cells is 200 nM. For the same compound, at human RIPK1 [2], the Ki worked out at 58 nM.
